Test results as given in patent US20040071967A1, “Microcapsule containing phase-change material and nucleating agent” (priority 2000, published 2004).

What was measured:
Assay type in all cases: physicochemical
Conditions in all cases: Table 7
[1] = Dynamic surface tension of aqueous solutions, maximum bubble pressure method
Protocol: In practical terms, high bubble rates correspond to high printing speeds in lithographic printing, high spray or roller velocities in coating applications, and rapid application rates for agricultural products. […] This value is a measure of the efficiency of a surfactant. […] The critical aggregation concentrations (solubility limit or critical micelle concentration) were determined by intersection of the linear portion of a surface tension/In concentration curve with the limiting surface tension as is described in many textbooks. The limiting surface tensions at 0.1 and 20 bubbles/second (b/s) represent the lowest surface tensions in water which can be achieved at the given surface creation rate for a given surfactant regardless of the amount of surfactant used. These values give information about the relative ability to a surfactant to reduce surface defects under near-equilibrium condition (0.1 b/s) through very dynamic conditions (20 b/s). Lower surface tensions would allow the elimination of defects upon application of a formulation onto lower energy surfaces.

[2] = Ross-Miles foam test based upon ASTM D 1173-53, 0.1 wt % solution
Protocol: The foam height is measured at the completion of the addition (“Initial Foam Height”) and the time required for the foam to dissipate is recorded (“Time to 0 Foam”). This test provides a comparison between the foaming characteristics of various surfactant solutions. In general, in coatings, inks, and agricultural formulations, foam is undesirable because is complicates handling and can lead to coating and print defects, and to inefficient application of agricultural materials.

[3] = Critical aggregation concentration (solubility limit or critical micelle concentration)
Protocol: The critical aggregation concentrations (solubility limit or critical micelle concentration) were determined by intersection of the linear portion of a surface tension/In concentration curve with the limiting surface tension as is described in many textbooks. The limiting surface tensions at 0.1 and 20 bubbles/second (b/s) represent the lowest surface tensions in water which can be achieved at the given surface creation rate for a given surfactant regardless of the amount of surfactant used. These values give information about the relative ability to a surfactant to reduce surface defects under near-equilibrium condition (0.1 b/s) through very dynamic conditions (20 b/s). Lower surface tensions would allow the elimination of defects upon application of a formulation onto lower energy surfaces.

Which “γ (0.1% solution) 1 b/s” value ([1]; 0.1% solution, 1 b/s) does the source give for “5 mole ethylene oxide, 2 mole propylene oxide adduct of 2,4,7,9-tetramethyl-5-decyne-4,7-diol [Example 6]” here?
Its value is 30.0 dyne/cm.

What about the “γ (0.1% solution) 6 b/s” value ([1]; 0.1% solution, 6 b/s) of the same substance?
The value was 37.1 dyne/cm.

What about the “limiting γ 0.1 b/s” value ([1]; 0.1 b/s) of the same substance?
The value was 28.6 dyne/cm.

What about the “limiting γ 20 b/s” value ([1]; 20 b/s) of the same substance?
Its value is 31.2 dyne/cm.

What about the pC20 [1] of the same substance?
The pC20 was 4.16.

And the “RM Foam initial” value ([2]; Ross-Miles foam, initial)?
Its value is 1.1 cm.

What about the “RM Foam (t to 0)” value ([2]; time to 0 foam in seconds) of the same substance?
Its value is “(5 s)”.

What about the “CAG (Critical aggregation concentration)” value [3] of the same substance?
The value was 0.10 wt %.
